Reference: article PMC9617675 (Antiviral Research, 2022)

Molecular target: SARS-CoV-2 M^pro (Severe acute respiratory syndrome coronavirus 2, UniProt P0DTD1)

## O=C[C@H](C[C@@H]1CCNC1=O)NC(=O)[C@H](CC1CCCCC1)NC(=O)c1cc2ccccc2[nH]1 [FB2001]
  dissociation from SARS-CoV-2 M^pro compared with PF-07321332: more difficult to dissociate
